Values joined by “and” are separate entries in the source; they are usually repeats but may differ in a detail not shown here. Identical values can stand only once.
Key:
[1] = biological target: Cetuximab full-length IgG1 heavy chain (H2 of the wild-type trastuzumab/cetuximab bispecific system); assay: SMCA: co-expression of H1, H2, L1, L2 in CHO cells, protein A purification, LC-MS; competing light chain: trastuzumab LC (untagged)
[2] = biological target: Cetuximab full-length IgG1 heavy chain (H2 of the wild-type trastuzumab/cetuximab bispecific system); assay: SMCA: co-expression of H1, H2, L1, L2 in CHO cells, protein A purification, LC-MS; competing light chain: FLAG-trastuzumab LC

% H2L2 Pairing (over all H2 species) [1]	% H2L2 Pairing (over all H2 species) [2]	Substance
29.6% and 29.4% and 24.6%		Cetuximab light chain with N-terminal FLAG tag
	60.3% and 60.8% and 60.1%	Cetuximab light chain, untagged
21.5% and 22.5% and 18.7%		Cetuximab light chain with N-terminal HA tag

Source: patent publication US11306156
